The results in this text go back to ChEMBL document CHEMBL1152600, “Dibenzazecine scaffold rebuilding--is the flexibility always essential for high dopamine receptor affinities?” (Bioorg Med Chem, 2009).

The chains behind the UniProt entries cited, without tags or fusion partners.
UniProt P14416, whole entry: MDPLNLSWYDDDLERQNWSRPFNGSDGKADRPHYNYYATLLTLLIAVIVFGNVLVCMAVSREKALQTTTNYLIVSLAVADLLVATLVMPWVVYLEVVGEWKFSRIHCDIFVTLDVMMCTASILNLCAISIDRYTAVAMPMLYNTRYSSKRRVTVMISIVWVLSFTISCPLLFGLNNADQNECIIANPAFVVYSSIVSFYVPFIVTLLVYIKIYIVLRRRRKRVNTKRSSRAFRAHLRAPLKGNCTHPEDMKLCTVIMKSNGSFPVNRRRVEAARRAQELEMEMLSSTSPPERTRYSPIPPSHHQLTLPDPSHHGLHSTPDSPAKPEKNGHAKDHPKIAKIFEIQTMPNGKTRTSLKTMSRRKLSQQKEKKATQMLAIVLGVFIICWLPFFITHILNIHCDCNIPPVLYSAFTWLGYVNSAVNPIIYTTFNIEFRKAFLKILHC
UniProt P21917, whole entry: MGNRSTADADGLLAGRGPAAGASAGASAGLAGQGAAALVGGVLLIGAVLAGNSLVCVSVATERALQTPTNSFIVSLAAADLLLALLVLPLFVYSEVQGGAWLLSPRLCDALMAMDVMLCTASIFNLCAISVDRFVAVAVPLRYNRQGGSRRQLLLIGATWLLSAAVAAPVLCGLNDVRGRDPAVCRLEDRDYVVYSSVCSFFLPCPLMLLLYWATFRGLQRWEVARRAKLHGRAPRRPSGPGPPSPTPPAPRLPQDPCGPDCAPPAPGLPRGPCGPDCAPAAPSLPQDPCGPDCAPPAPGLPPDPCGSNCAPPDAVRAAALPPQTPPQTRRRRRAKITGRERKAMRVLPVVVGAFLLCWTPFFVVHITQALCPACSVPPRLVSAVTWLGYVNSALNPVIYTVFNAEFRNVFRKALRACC
UniProt P21728, whole entry: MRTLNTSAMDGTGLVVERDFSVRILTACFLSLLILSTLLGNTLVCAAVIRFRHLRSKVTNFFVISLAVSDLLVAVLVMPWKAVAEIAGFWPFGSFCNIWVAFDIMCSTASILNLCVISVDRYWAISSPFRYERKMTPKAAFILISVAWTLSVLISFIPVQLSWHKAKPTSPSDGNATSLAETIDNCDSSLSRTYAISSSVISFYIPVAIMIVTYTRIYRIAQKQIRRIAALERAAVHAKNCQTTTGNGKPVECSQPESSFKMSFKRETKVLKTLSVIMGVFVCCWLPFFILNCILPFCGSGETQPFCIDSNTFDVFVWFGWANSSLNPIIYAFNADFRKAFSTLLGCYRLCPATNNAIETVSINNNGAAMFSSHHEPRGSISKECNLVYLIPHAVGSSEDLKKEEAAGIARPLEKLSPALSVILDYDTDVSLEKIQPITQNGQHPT
UniProt P21918, whole entry: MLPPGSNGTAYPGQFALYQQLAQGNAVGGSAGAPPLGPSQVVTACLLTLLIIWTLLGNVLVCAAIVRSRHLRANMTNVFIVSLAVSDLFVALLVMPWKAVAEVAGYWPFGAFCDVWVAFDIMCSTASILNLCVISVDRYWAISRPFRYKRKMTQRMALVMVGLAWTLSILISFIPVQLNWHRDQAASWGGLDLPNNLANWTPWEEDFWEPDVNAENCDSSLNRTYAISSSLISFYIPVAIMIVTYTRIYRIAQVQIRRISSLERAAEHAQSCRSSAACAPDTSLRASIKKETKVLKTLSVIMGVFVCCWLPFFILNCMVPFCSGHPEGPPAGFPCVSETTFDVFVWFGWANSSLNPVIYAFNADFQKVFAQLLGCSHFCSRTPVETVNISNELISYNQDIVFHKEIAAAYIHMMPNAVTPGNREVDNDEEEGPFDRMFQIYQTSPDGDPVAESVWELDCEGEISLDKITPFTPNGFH

The structures appear in SMILES notation. pKi: −log10 of the molar value.

What all share (assay type): cell-based
The target in assay [1] is D(2) dopamine receptor (Homo sapiens, UniProt P14416). Put plainly: Displacement of [3H]spiperone from human dopamine D2L receptor expressed in CHO cells by scintillation counting. Background: Displacement assays read how much labelled ligand stays bound in the presence of the test substance.
For assay [2], the target named is D(4) dopamine receptor (Homo sapiens, UniProt P21917). Nature of the assay: Displacement of [3H]spiperone from human dopamine D4 receptor expressed in CHO cells by scintillation counting.
For assay [3], the target named is D(1A) dopamine receptor (Homo sapiens, UniProt P21728). Put plainly: Displacement of [3H]SCH23390 from human dopamine D1 receptor expressed in CHO cells by scintillation counting.
The target in assay [4] is D(1B) dopamine receptor (Homo sapiens, UniProt P21918). Nature of the assay: Displacement of [3H]SCH23390 from human dopamine D5 receptor expressed in CHO cells by scintillation counting.

Consider `COc1ccc2c(c1)CCN1CCc3ccccc3C21` (configuration not stated), for which the pKi in assay [1] was below 5.00. `COc1ccc2c(c1)CCCN1Cc3ccccc3C21` (configuration not stated) showed a pKi in assay [1] below 5.00.

With `Cc1ccccc1CC1c2ccc(O)cc2CCN1C` (configuration not stated), the pKi in assay [2] was below 5.00. For the compound `CN1CCc2cc(O)ccc2CCc2ccccc2C1`, the pKi in assay [1], in assay [3] and in assay [4] was below 5.00 throughout. For the compound `CN1CCCc2cc(O)ccc2Cc2ccccc2C1`, in assay [1], the pKi is below 5.00.

What is called pKi is the negative decadic logarithm of the Ki, by convention in mol/L.
